Data as given in publication PMC12678798, “Discovery of an allosteric binding site for anthraquinones at the human P2X4 receptor” (Nature Communications, 2025).
Where two headings read alike, the source gives them in different places.

Amino acid sequences for entries named in this document (tags omitted). A change or cut given only in a name is not applied to a line headed by its entry. Chains listed by the source or under a name are the forms on record and can include a tag or linker.
UniProt Q99571, whole entry: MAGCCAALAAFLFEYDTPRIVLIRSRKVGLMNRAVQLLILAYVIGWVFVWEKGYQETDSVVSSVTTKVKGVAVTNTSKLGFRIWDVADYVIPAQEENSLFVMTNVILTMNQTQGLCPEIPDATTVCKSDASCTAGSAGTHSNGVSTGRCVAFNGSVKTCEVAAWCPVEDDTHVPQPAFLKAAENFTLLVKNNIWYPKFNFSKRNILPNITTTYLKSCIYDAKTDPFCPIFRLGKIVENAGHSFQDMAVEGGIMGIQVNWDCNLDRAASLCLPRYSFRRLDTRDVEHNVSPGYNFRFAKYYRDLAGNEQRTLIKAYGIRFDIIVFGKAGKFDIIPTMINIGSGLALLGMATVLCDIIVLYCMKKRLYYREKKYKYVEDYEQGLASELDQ
UniProt Q99571, whole entry E307T: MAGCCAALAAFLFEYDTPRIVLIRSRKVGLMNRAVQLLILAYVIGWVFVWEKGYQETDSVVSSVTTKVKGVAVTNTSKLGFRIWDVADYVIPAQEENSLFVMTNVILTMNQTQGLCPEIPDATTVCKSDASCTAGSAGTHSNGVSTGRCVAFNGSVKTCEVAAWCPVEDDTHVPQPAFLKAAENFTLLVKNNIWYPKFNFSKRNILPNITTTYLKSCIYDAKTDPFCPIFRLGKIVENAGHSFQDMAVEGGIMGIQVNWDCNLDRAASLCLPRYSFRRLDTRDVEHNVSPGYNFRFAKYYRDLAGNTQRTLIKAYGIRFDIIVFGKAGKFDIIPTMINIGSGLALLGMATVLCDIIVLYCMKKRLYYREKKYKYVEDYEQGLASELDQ
UniProt Q99571, with tags, fused parts or gaps A304N/D302K/DEL301-301/E307T/L303I/N306T/Q308T: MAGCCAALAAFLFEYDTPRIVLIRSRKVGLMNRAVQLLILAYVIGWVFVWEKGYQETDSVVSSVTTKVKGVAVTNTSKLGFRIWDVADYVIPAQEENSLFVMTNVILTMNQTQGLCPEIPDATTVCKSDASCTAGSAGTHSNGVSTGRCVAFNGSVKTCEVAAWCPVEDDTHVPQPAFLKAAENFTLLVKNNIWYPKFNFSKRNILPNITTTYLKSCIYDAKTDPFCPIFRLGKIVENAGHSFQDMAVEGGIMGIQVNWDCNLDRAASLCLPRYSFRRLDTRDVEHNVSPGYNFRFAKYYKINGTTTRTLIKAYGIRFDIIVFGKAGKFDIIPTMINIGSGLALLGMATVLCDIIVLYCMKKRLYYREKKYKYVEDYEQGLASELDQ

Key:
human wt P2X4 receptor = human wt P2X4 receptor (Homo sapiens, UniProt Q99571); assay: ATP-induced calcium influx assay, human wt P2X4 receptor in 1321N1 astrocytoma cells; format: cell-based; conditions: read-out: IC50 ± SEM, wt P2X4, 1321N1 astrocytoma cells, inhibition vs ATP at its EC80, 30 min preincubation
[1] = molecular target: human P2X4-E307T receptor mutant (Homo sapiens, UniProt Q99571, E307T); assay: ATP-induced calcium influx assay, P2X4-E307T mutant in 1321N1 astrocytoma cells; format: cell-based
[2] = molecular target: chimeric P2X4(P2X2) receptor c10^R301-Q308 (Homo sapiens, UniProt Q99571, A304N/D302K/DEL301-301/E307T/L303I/N306T/Q308T); assay: ATP-induced calcium influx assay, chimeric receptor c10 in 1321N1 astrocytoma cells; format: cell-based; conditions: read-out: IC50 ± SEM, P2X4(P2X2) c10^R301-Q308, 1321N1 astrocytoma cells, vs ATP at its EC80
[3] = Physicochemical properties (water solubility, lipophilicity); conditions: as stated in words; tested form: Na salt
[4] = read-out: IC50 ± SEM, vs ATP at its EC80, tested form: Na salt

SMILES | IC50 (human wt P2X4 receptor; tested form: Na salt) [nM] | IC50 [1, 4] [nM] | IC50 ([2]; tested form: Na salt) [nM] | Water solubility [3] | IC50 (human wt P2X4 receptor) [nM] | IC50 ([1]; read-out: IC50 ± SEM, vs ATP at its EC80) [nM] | IC50 [2] [nM]
O=C1c2ccccc2C(=O)c2c(Nc3ccc(Nc4ccccc4)c(S(=O)(=O)O)c3)cc(S(=O)(=O)O)cc21 | 11400 | 40.4 | – | – | – | – | –
Nc1c(S(=O)(=O)O)cc(Nc2ccc(Nc3ccccc3)cc2)c2c1C(=O)c1ccccc1C2=O | 1350 | 164 | 92.2 | Water-soluble | – | – | –
Cc1cc(C)cc(Nc2cc(S(=O)(=O)O)c(N)c3c2C(=O)c2ccccc2C3=O)c1 | 20000 | 195 | 266 | – | – | – | –
COc1cccc(Nc2cc(S(=O)(=O)O)c(N)c3c2C(=O)c2ccccc2C3=O)c1 | 3280 | 204 | 44.8 | – | – | – | –
Cc1cc(Nc2ccc(Nc3ccccc3)c(S(=O)(=O)O)c2)c2c(c1N)C(=O)c1ccccc1C2=O | 25300 | 180 | 42.9 | – | – | – | –
Cc1cc(Nc2ccc(Nc3ccccc3)cc2)c2c(c1N)C(=O)c1ccccc1C2=O | – | – | – | – | > 10000 | > 10000 | > 10000
Nc1c(S(=O)(=O)O)cc(Nc2ccc(O)cc2)c2c1C(=O)c1ccccc1C2=O | 4330 | 289 | 61.9 | – | – | – | –
